Results: patent publication US9611262B2, “Substituted 2-azabicycles and their use as orexin receptor modulators” (JANSSEN PHARMACEUTICA NV, priority 2014, dated 2017)

Sequences of proteins named here, by UniProt entry; tags and fusion partners are left off.
UniProt O43613, whole entry: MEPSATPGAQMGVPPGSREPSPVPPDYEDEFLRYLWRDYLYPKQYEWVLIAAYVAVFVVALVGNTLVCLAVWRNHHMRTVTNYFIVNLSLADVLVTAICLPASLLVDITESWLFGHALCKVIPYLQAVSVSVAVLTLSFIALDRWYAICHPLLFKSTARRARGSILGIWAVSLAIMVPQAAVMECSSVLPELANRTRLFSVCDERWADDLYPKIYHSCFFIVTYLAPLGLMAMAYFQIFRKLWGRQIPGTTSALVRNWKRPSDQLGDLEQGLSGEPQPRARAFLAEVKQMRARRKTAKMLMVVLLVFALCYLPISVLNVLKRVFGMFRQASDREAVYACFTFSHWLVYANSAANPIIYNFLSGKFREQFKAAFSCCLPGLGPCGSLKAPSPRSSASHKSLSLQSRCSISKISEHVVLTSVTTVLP

Assays:
rat orexin 1 receptor = rat orexin 1 receptor (Rattus norvegicus, UniProt P56718); assay: Rat orexin 1 receptor radioligand binding (competitive); settings: HEK293 cells stably expressing rat orexin 1 receptor; 4 nM radioligand; averages of 2-20 runs; read-out: rOX1 Ki
Summary of the method: (§1)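 Competition binding used HEK293 cells expressing rat OX1 or CHO cells expressing human OX1, with 4 nM final [3H]-labelled thiazolyl-oxadiazolyl-pyrrolidinyl methanone radioligand in PBS. Compounds were tested at 7 concentrations (0.1 nM–10 μM) for 60 min at room temperature, then filtered; 10 μM almorexant defined nonspecific binding. Ki was derived from the one-site IC50 and the radioligand Kd.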

human orexin 1 receptor = human orexin 1 receptor (Homo sapiens (Human), UniProt O43613); assay: Human orexin 1 receptor radioligand binding (competitive); settings: CHO cells stably expressing human orexin 1 receptor; 4 nM radioligand; averages of 2-20 runs; read-out: hOX1 Ki
Summary of the method: as §1

Compound | Ki (rat orexin 1 receptor) [nM] | Ki (human orexin 1 receptor) [nM]
Cc1ccc(-n2nccn2)c(C(=O)N2C(C)C3CC(Nc4cnc(C(F)(F)F)cn4)C2C3)n1 (single isomer, unassigned) [Example 6, (R/S)-(6-methyl-3-(2H-1,2,3-triazol-2-yl)pyridin-2-yl)(3-methyl-6-((5-(trifluoromethyl)pyrazin-2-yl)amino)-2-azabicyclo[2.2.1]heptan-2-yl)methanone] | 90 | 83
C[C@@H]1[C@H]2C[C@@H](Oc3ccc(C(F)(F)F)cn3)[C@H](C2)N1C(=O)c1ncccc1-n1nccn1 (relative stereo) [Example 23, (3-(2H-1,2,3-triazol-2-yl)pyridin-2-yl)((1S*,3R*,4R*,6R*)-3-methyl-6-((5-(trifluoromethyl)pyridin-2-yl)oxy)-2-azabicyclo[2.2.1]heptan-2-yl)methanone] | 14 | 14
Cc1ccc(-n2nccn2)c(C(=O)N2C(CF)C3CC(Oc4ccc(C(F)(F)F)cn4)C2C3)n1 (racemic) [Example 70] | 21 | 30
CCC1C2CC(Oc3ccc(C(F)(F)F)cn3)C(C2)N1C(=O)c1ccccc1-c1ncccn1 (racemic) [Example 214, (R/S)-[2-ethyl-5-[[5-(trifluoromethyl)-2-pyridyl]oxy]-3-azabicyclo[2.2.1]heptan-3-yl]-(2-pyrimidin-2-ylphenyl)methanone] | 7 | 10
CC1C2CC(Nc3cnc(C(F)(F)F)cn3)C(C2)N1C(=O)c1ccccc1-n1nccn1 (racemic) [Example 68, (R/S)-(2-(2H-1,2,3-triazol-2-yl)phenyl)(3-methyl-6-((5-(trifluoromethyl)pyrazin-2-yl)amino)-2-azabicyclo[2.2.1]heptan-2-yl)methanone] | 11 | 6
CC1C2CC(Nc3cnc(C(F)(F)F)cn3)C(C2)N1C(=O)c1ccccc1-n1nccn1 (single isomer, unassigned) [Example 68B, (2-(2H-1,2,3-triazol-2-yl)phenyl)((1S*,3R*,4S*,6R*)-3-methyl-6-((5-(trifluoromethyl)pyrazin-2-yl)amino)-2-azabicyclo[2.2.1]heptan-2-yl)methanone] | 4 | 5
Cc1ccc(-n2nccn2)c(C(=O)N2C(C)C3CC(Oc4ccc(C(F)(F)F)cn4)C2C3)n1 (single isomer, unassigned) [Example 22B, (6-methyl-3-(2H-1,2,3-triazol-2-yl)pyridin-2-yl)((1S*,3R*,4R*,6R*)-3-methyl-6-((5-(trifluoromethyl)pyridin-2-yl)oxy)-2-azabicyclo[2.2.1]heptan-2-yl)methanone] | 5 | 6
CCOc1ccc(C)nc1C(=O)N1[C@H](C)[C@H]2C[C@@H](Oc3cnc(C(F)(F)F)cn3)[C@@H]1C2 (relative stereo) [Example 56, (3-ethoxy-6-methylpyridin-2-yl)((1S*,3R*,4R*,6R*)-3-methyl-6-((5-(trifluoromethyl)pyrazin-2-yl)oxy)-2-azabicyclo[2.2.1]heptan-2-yl)methanone] | 145 | 314
Cc1cnc(-n2nccn2)c(C(=O)N2C(CF)C3CC(Oc4ccc(C(F)(F)F)cn4)C2C3)c1 (racemic) [Example 72] | 22 | 22
Cc1ccc(-c2ncccn2)c(C(=O)N2C(C)C3CC(Oc4ccc(C(F)(F)F)cn4)C2C3)n1 (single isomer, unassigned) [Example 16B, (6-methyl-3-(pyrimidin-2-yl)pyridin-2-yl)((1S*,3R*,4R*,6R*)-3-methyl-6-((5-(trifluoromethyl)pyridin-2-yl)oxy)-2-azabicyclo[2.2.1]heptan-2-yl)methanone] | 7 | 6
CC1C2CC(Oc3ccc(C(F)(F)F)cn3)C(C2)N1C(=O)c1cc(F)ccc1-c1ncccn1 (racemic) [Example 18, (R/S)-(5-fluoro-2-(pyrimidin-2-yl)phenyl)(−3-methyl-6-((5-(trifluoromethyl)pyridin-2-yl)oxy)-2-azabicyclo[2.2.1]heptan-2-yl)methanone] | 7 | 8
Cc1ccc(-n2nccn2)c(C(=O)N2[C@H](C)[C@H]3C[C@@H](Oc4cnc5ccccc5n4)[C@@H]2C3)n1 (relative stereo) [Example 183, (6-methyl-3-(2H-1,2,3-triazol-2-yl)pyridin-2-yl)((1S*,3R*,4R*,6R*)-3-methyl-6-(quinoxalin-2-yloxy)-2-azabicyclo[2.2.1]heptan-2-yl)methanone] | 5 | 5
C[C@@H]1[C@H]2C[C@@H](Nc3ccc(C(F)(F)F)cn3)[C@H](C2)N1C(=O)c1ncccc1-n1nccn1 (relative stereo) [Example 64, (3-(2H-1,2,3-triazol-2-yl)pyridin-2-yl)((1S*,3R*,4S*,6R*)-3-methyl-6-((5-(trifluoromethyl)pyridin-2-yl)amino)-2-azabicyclo[2.2.1]heptan-2-yl)methanone] | 4 | 4
CC1C2CC(Oc3ccc(C(F)(F)F)cn3)C(C2)N1C(=O)c1cccc(F)c1-c1ncc(F)cn1 (single isomer, unassigned) [Example 20B, (3-fluoro-2-(5-fluoropyrimidin-2-yl)phenyl)((1S*,3R*,4R*,6R*)-3-methyl-6-((5-(trifluoromethyl)pyridin-2-yl)oxy)-2-azabicyclo[2.2.1]heptan-2-yl)methanone] | 4 | 6
CC1C2CC(Oc3ccc(C(F)(F)F)cn3)C(C2)N1C(=O)c1ccc(F)cc1-c1ncccn1 (racemic) [Example 17, (R/S)-(4-fluoro-2-(pyrimidin-2-yl)phenyl)(−3-methyl-6-((5-(trifluoromethyl)pyridin-2-yl)oxy)-2-azabicyclo[2.2.1]heptan-2-yl)methanone] | 11 | 11
Cc1ccc(-n2nccn2)c(C(=O)N2C(C)C3CC(Oc4ccc(C(F)(F)F)cn4)C2C3)n1 (single isomer, unassigned) [Example 3, (R/S)-(6-methyl-3-(2H-1,2,3-triazol-2-yl)pyridin-2-yl)(3-methyl-6-((5-(trifluoromethyl)pyridin-2-yl)oxy)-2-azabicyclo[2.2.1]heptan-2-yl)methanone] | 21 | 20
Cc1cnc(C(=O)N2C(C)C3CC(Oc4ccc(C(F)(F)F)cn4)C2C3)c(-n2nccn2)c1 (racemic) [Example 11, (R/S)-(5-methyl-3-(2H-1,2,3-triazol-2-yl)pyridin-2-yl)(3-methyl-6-((5-(trifluoromethyl)pyridin-2-yl)oxy)-2-azabicyclo[2.2.1]heptan-2-yl)methanone] | 14 | 15
Cc1ccc(-n2nccn2)c(C(=O)N2C(C)C3CC(Nc4cnc(C(F)(F)F)cn4)C2C3)n1 (single isomer, unassigned) [Example 69B, (6-methyl-3-(2H-1,2,3-triazol-2-yl)pyridin-2-yl)((1S*,3R*,4S*,6R*)-3-methyl-6-((5-(trifluoromethyl)pyrazin-2-yl)amino)-2-azabicyclo[2.2.1]heptan-2-yl)methanone] | 7 | 5
Cc1cnc(C(=O)N2[C@H](C)[C@H]3C[C@@H](Nc4ccc(C(F)(F)F)cn4)[C@@H]2C3)c(-n2nccn2)c1 (relative stereo) [Example 66, (5-methyl-3-(2H-1,2,3-triazol-2-yl)pyridin-2-yl)((1S*,3R*,4S*,6R*)-3-methyl-6-((5-(trifluoromethyl)pyridin-2-yl)amino)-2-azabicyclo[2.2.1]heptan-2-yl)methanone] | 7 | 5
Cc1ccc(-c2ncccn2)c(C(=O)N2C(C)C3CC(Oc4ccc(C(F)(F)F)cn4)C2C3)n1 (racemic) [Example 16, (R/S)-(6-methyl-3-(pyrimidin-2-yl)pyridin-2-yl)(3-methyl-6-((5-(trifluoromethyl)pyridin-2-yl)oxy)-2-azabicyclo[2.2.1]heptan-2-yl)methanone] | 20 | 38
